# Measured affinities in a library of Ab-95 light chain variants

Antigen: PDVDLGDISGINAS, a 14-residue peptide of the SARS-CoV-2 spike HR2 region.

Parent scFv Ab-95: VH joined to VL by the linker GGGGSGGGGSGGGGS. Changes lie in the light chain CDRs alone.
VH: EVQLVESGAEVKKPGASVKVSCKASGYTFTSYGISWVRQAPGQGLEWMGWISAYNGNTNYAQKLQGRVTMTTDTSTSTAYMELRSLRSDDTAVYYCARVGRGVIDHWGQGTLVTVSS
VL: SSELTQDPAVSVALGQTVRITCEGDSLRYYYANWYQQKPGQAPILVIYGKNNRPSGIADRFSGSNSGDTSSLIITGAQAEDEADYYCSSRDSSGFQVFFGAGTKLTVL

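Phage display of a naive human antibody library on the peptide gave the parent. Library AAYL52 holds single substitutions and randomly drawn double and triple substitutions in the CDRs. The assay is AlphaSeq: two haploid yeast populations carry antibody and antigen on their surface. After mating in shaken culture at 30 °C for 16 h, diploids were selected and their barcode pairs sequenced. The ratio of observed to expected reads was calibrated, replicate by replicate, on BCL2-family standards whose Kd was known from biolayer interferometry. Each pool was mated in three replicate cultures.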

Variants are written as CDR1, CDR2 and CDR3 of the light chain (limits as in the source). Parent: EGDSLRYYYAN, GKNNRPS, SSRDSSGFQVF.
Each Kd is an estimate from the mating assay, the geometric mean of the replicates in which the pair was seen; lower is stronger.
"nd" marks a missing value. The strain was present, yet no cells mated with the target were sequenced in any replicate, which points to weak or no binding.
Three control strains display no target. For library AAYL52, 28% of the pairings with them gave a signal, with a median of 8.2 µM and one signal in twenty below 800 nM, so weak values seen in few replicates may be background.
Parent in this assay: reference entry 200 nM, copy in this library 180 nM.

| Kd (apparent) | seen in | CDR-L1 | CDR-L2 | CDR-L3 |
|---|---|---|---|---|
| 24 µM | 1/3 | EGDSLRYYLAN | GKNNRPS | DSRDSSGFAVF |
| 110 µM | 1/3 | EGDSLRYYYCN | GKNNRPC | SSRDSSGFQHF |
| 180 nM | 3/3 | EGDSLRYQYAN | GKVNRPS | SSRDSSGFQVQ |
| nd | 0/3 | EYDSLRYYYAN | GKINQPS | SSRDSSGFQVF |
| 36 µM | 2/3 | EGDSLRYYMAN | GKYNRPS | SSRDSSGFQLF |
| 4.7 µM | 2/3 | EGDSLRYYYAN | GKNNCPS | SSRDSRGFQVM |
| 360 nM | 3/3 | EGDSLRYYYAN | GKNNRPS | QSKDSPGFQVF |
| 840 nM | 3/3 | EGDSLRYYYAN | GKNNRRW | SSRDSSGFQLF |
| 1.9 µM | 3/3 | EGWSLRYYYAN | GKNNRSS | SSRMSSGFQVF |
| nd | 0/3 | LGDSLREYYAN | GKNNRPS | SSRDSSGFIVF |
| 310 nM | 2/3 | EGDSLRYYYAN | GKNNRPF | SSRDSSGLQCF |
| 8.4 µM | 3/3 | EGDWLRYYYAN | PKNNRPS | TSRDSSGFQVF |
| 16 µM | 1/3 | EGDSLLYYYAN | GKNNRPS | EQRDSSGFQVF |
| 46 µM | 3/3 | EGDPLRYYYAN | GKNNVPS | SSPDSSGFQVF |
| 150 µM | 1/3 | EGDSLRYYYAN | GKNNRPS | GSRVSHGFQVF |
| 6.1 µM | 1/3 | EGDSRRYYYAN | GKNVRPS | SSRLSSGFQVF |
| nd | 0/3 | EGDSPRYYYAN | GKNNHPS | SSRDRSGFQVF |
| nd | 0/3 | EGPSLRYYYAT | GKNNNPS | SSRDSSGFQVF |
| nd | 0/3 | EGDSLRYYYAN | GKNNRPS | SSRDHSGFQEF |
| 5.4 µM | 2/3 | EGDSLRYYYAN | GKINRPS | SSRDSSGFMVF |
| 4.3 µM | 3/3 | EGDSLRDYYAN | GKENHPS | SSRDSSGFQVF |
| 17 nM | 3/3 | IGDSLRYGYAN | GKNNRPS | SERDSSGFQVF |
| 15 µM | 1/3 | EADSLRYYYAN | GPNGRPS | SSRDSSGFQVF |
| 500 nM | 3/3 | EGDSLRYYYNN | GVNNRPS | SSRDSSGYQVF |
| 460 nM | 3/3 | EGDSLRYYYAN | GKSNRPS | FSRDSSGFQVF |
| 2.2 µM | 3/3 | EGDSLRYYYAN | GKHNRSS | SSRDSSYFQVF |
| 13 µM | 1/3 | EGDSLRYYYAN | GINNGSS | SSRDSSGFQVF |
| 960 nM | 2/3 | EGDSLRYYLAN | GKNNRPS | KSRDSSGFQAF |
| 240 nM | 3/3 | EGDSFRYLYAV | GKNNRPS | SSRDSSGFQVF |
| 9.4 µM | 1/3 | EGDSLRYYYAN | IKNNRPS | SSRDGSAFQVF |
| 7.2 µM | 3/3 | EGDSIQYYYAN | GKNNRCS | SSRDSSGFQVF |
| 3.3 µM | 3/3 | EGDSLRYYYAN | GKNNRPS | SSRDSSGWDVF |
| 13 µM | 2/3 | EGDSERYYYAN | GKNNRPS | SSRDSSAFSVF |
| 2.5 µM | 1/3 | EGDSLRYYYAN | GKNNRPS | SERDSMVFQVF |
| nd | 0/3 | EGDSLMYYYAN | GKANRRS | SSRDSSGFQVF |
| 790 nM | 3/3 | EGDSLRWYYAN | GKENRPS | SSRDSSGFQVF |
| 16 µM | 3/3 | EGDSSRYYYIN | GKNNRPS | SSRDSSGFQEF |
| 990 nM | 2/3 | EGDSQRYLYAN | GKNNRPS | SSRDSSGFIVF |
| 44 µM | 1/3 | EWDSLRYYYAN | GKNNRPI | SSRDSSPFQVF |
| 27 µM | 1/3 | EGDSLRHYYAN | GKNNRPS | SSRDSSDFQVQ |
| 1.7 µM | 3/3 | YGDNLRYYYAN | GKNNRPS | SSRDSIGFQVF |
| 880 nM | 3/3 | ESDSLRYYYAN | GKNNRPS | SSRSSSGFQCF |
| 1.1 µM | 1/3 | EGDDLRYYYVN | GKNNRPS | SSRDSCGFQVF |
| 20 µM | 1/3 | KGDSARYYYAN | GKNNRPS | SSRDSSGFQVP |
| 600 nM | 3/3 | EGDSLRYRYAD | GKNNRPS | SSHDSSGFQVF |
| 1.0 µM | 3/3 | EGSSLIYYYAN | GKNQRPS | SSRDSSGFQVF |
| 56 µM | 2/3 | EGDSLRYYYAF | GKNNRPS | STRDSSGFDVF |
| 17 µM | 2/3 | EGDSLRYYYAC | GKNNRPS | SSRDSAGFQTF |
| 390 nM | 3/3 | EGDSLRYYYAN | GKNNRPS | SSRQSSGSQVF |
| 4.1 µM | 1/3 | EGDFLRYYHAN | GKNNRPS | RSRDSSGFQVF |
| 1.6 µM | 3/3 | EGDSLRYYYAN | GKNNRPS | SGRVSSGFQGF |
| 19 µM | 1/3 | EEESLRYYYAN | GKNNRPS | SSRDSSGFQCF |
| 340 nM | 3/3 | EGDSLRYYYAN | GKNNRPS | SSPISSGFFVF |
| 9.0 µM | 1/3 | EGDSPRYQYAN | GKENRPS | SSRDSSGFQVF |
| nd | 0/3 | EGGSLRYKYAN | GKNNRPS | SSRLSSGFQVF |
| 25 µM | 3/3 | EGDSERYYYAN | GKCNRPS | SSRDSSGMQVF |
| nd | 0/3 | EGVSLLYYYAN | GKTNRPS | SSRDSSGFQVF |
| 5.6 µM | 1/3 | EGDSLRYYYAN | GKCNRPF | SSRDPSGFQVF |
| 530 nM | 3/3 | EGDSLRYYYAN | GKNNRGS | SSRDSQGFQVF |
| 1.6 µM | 3/3 | EGDSLTYFYAN | GKNNRPS | SSRPSSGFQVF |
| nd | 0/3 | EGDSLRYYYSN | GKNNRPS | FSRDSSGVQVF |
| 8.4 µM | 2/3 | ETDSLRYYYAN | GKNNRPS | SSPDCSGFQVF |
| 34 nM | 3/3 | EGDSLRYYYAN | GDNNRPS | SSRDSSGFQVV |
| 230 nM | 3/3 | EGDSLVKYYAN | GKNNRPE | SSRDSSGFQVF |
| 260 µM | 1/3 | EGDSLRYYADN | GKNNRPR | SSRDSSGFQVF |
| 1.7 µM | 3/3 | EGDSIRYYYAN | GKNNRPS | SSHDSSGFQKF |
| 730 nM | 2/3 | EGGSLRYYYAN | GKNNRPS | SSFDSSGFAVF |
| 2.6 µM | 2/3 | EGDSLRYYYAE | GKNHRPS | SSRDDSGFQVF |
| 62 µM | 2/3 | EGDSLRYYYAI | GKNNRGS | SSRDSSGLQVF |
| 34 nM | 3/3 | EGDSLRYYYAN | GKNNRPS | SSRDSSGEQSM |
| 15 µM | 1/3 | EGDSLRYYYAN | GKNNMPS | PSRDSNGFQVF |
| 4.7 µM | 3/3 | EGDSSRYYYAN | GKNNRPS | SSRDSSSFQVY |
| 290 nM | 3/3 | EGDSLRYYYAN | GKNNRPS | SSADSSGFMCF |
| 37 µM | 2/3 | EGDQLRYYYWN | GKNNRPS | HSRDSSGFQVF |
| 6.9 µM | 2/3 | EGDSLEYYYAN | GKNNRPS | MSDDSSGFQVF |
| 15 µM | 3/3 | EGDSLRYYYAN | GKDNLPI | SSRDSSGFQVF |
| 380 nM | 3/3 | EGDSLRYYYAN | GKNNRPS | SSEYSLGFQVF |
| 45 µM | 2/3 | EGDSLRYYYAE | GKNNRPS | SSRDKSGFQVY |
| nd | 0/3 | YGDSLRFYYAN | GKNNRPS | SSVDSSGFQVF |

Reference: Engelhart et al. 2022, doi:10.1038/s41597-022-01779-4. File: FLAb, binding data.